Measurements: US20060257400A1, “COMBINATION THERAPY” (Bristol-Myers Squibb Company, priority 2005, published 2006)

Tested on: Human L2987 lung carcinomas
Test: Antitumor testing, s.c. L2987 xenografts in nude mice
Format: in vivo
Details: athymic nude mice, s.c. L2987 tumors established at 100-200 mm^3; Compound I 100 mg/Kg daily; Erbitux 1 mg per mouse every three days, 5 doses; combination given essentially simultaneously
Procedure: Compounds. Compound I was synthesized by Bristol-Myers Squibb (BMS) chemists. Cetuximab (also known as Erbitux®) was a gift of Imclone Systems, Inc. The antibody was dissolved in phosphate buffered saline for i.p. injection to mice. Compound I was administered to mice in a volume of 100 mg/kg of body weight based on the average weight of the mice in each group at the time of treatment. Cetuximab was administered in 0.25 ml on a per mouse basis.
Animals. Athymic (“nude”) mice, 5-6 weeks of age, purchased from Harlan Sprague Dawley (Indianapolis, Ind.), were quarantined for ˜2 weeks before their use for tumor propagation and drug efficacy testing. They were fed food and water ad libitum. All studies involving these animals were conducted in accordance with NIH (Bethesda, Md.) and Bristol Myers-Squibb animal care and use guidelines.
Tumors. Human L2987 lung carcinomas were maintained in nude mice by serial s.c. passage. All efficacy testing involved tumors implanted s.c. in nude mice. Treatment was initiated when tumors had become well established at between 100-200 mm^3.
Compound I was administered in combination with Erbitux and compared to either agent dosed alone. Each compound was dosed on its optimal preclinical schedule and dose level. This included a daily regimen for Compound I at 100 mg/Kg while Erbitux was dosed at 1 mg per mouse every three days for a total delivery of 5 doses. […]

## cetuximab [Erbitux]
  delay of tumor growth to target tumor size of 500 mm^3 compared to vehicle treated control group: 6 days
